Experiments:
lysosomal mannosidase = molecular target: T1, lysosomal mannosidase (Homo sapiens, UniProt O00754); test: Selectivity for inhibition of α-mannosidase II vs. lysosomal mannosidase; format: biochemical; conditions: for ratio M/L (smaller is better): ratio of activities of α-Mannosidase II/lysosomal mannosidase
T1 sequence (O00754 50-1011): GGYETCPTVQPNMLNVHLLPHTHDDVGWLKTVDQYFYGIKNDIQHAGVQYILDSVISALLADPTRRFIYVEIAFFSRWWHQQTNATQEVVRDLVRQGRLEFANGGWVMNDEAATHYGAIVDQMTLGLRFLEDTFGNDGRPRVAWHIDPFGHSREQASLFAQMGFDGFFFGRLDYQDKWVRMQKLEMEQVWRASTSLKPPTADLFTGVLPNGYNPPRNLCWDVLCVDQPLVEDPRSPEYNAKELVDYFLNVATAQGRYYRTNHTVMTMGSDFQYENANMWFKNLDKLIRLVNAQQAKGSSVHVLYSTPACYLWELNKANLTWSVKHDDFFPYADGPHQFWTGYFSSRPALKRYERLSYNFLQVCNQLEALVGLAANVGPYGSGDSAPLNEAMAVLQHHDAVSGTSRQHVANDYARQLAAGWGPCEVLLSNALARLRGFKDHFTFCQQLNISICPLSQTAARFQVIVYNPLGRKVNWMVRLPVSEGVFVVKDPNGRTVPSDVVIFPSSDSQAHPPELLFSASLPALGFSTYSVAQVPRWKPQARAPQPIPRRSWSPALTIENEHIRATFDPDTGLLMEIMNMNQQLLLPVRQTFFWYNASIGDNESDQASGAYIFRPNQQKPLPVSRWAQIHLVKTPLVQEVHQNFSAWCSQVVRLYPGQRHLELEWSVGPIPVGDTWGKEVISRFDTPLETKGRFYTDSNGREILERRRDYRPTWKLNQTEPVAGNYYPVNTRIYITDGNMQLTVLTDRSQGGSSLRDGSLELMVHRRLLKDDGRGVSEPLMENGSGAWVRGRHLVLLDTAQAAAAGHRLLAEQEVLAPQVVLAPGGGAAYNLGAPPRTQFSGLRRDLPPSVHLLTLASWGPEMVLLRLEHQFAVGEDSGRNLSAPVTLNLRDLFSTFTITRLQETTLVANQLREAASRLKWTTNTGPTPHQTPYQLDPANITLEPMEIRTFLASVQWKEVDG

[1] = molecular target: T2, α-mannosidase from jack bean (Canavalia ensiformis, UniProt C0HJB3); test: Screen for inhibition of α-mannosidase from jack bean; format: biochemical
T2 sequence (C0HJB3 1-981): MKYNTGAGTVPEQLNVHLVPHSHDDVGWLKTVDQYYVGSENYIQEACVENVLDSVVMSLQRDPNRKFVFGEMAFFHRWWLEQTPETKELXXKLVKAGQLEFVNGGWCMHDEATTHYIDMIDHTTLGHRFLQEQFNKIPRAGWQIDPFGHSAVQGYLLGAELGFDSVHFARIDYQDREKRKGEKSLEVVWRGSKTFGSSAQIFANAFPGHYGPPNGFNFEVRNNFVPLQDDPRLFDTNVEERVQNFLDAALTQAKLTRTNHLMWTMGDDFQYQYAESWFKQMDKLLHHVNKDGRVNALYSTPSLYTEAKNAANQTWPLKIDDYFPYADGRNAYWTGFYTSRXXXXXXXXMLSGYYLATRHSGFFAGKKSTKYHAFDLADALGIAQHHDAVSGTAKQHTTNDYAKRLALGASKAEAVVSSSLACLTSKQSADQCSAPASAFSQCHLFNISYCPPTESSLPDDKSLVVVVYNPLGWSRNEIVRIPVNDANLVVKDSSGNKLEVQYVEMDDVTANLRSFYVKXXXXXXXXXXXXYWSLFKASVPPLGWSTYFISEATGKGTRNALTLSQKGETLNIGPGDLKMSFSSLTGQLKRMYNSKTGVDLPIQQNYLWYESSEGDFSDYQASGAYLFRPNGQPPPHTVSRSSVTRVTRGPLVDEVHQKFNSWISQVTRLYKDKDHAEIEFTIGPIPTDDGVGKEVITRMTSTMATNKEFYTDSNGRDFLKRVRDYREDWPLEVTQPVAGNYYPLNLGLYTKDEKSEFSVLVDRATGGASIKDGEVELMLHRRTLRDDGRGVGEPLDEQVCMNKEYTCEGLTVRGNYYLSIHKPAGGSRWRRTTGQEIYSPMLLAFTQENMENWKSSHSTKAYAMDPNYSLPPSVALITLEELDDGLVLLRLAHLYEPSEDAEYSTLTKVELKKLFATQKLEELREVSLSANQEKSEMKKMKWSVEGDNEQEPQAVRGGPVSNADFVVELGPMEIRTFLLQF
From the text: All of the C(6) and C(7) alkylated swainsonine analogs were screened for inhibition activity against α-mannosidase from jack bean to ascertain their basic ability to inhibit mannosidase enzymes. Alkylation of the swainsonine backbone provides compounds with varying degrees of α-mannosidase inhibitory activity.

SMILES	selectivity for inhibition of α-mannosidase II over lysosomal mannosidase (in words) (lysosomal mannosidase)	ratio M/L (smaller is better) (lysosomal mannosidase)	IC50 [1] [nM]
O[C@@H]1[C@H](CCOCc2ccccc2)CCN2C[C@@H](O)[C@@H](O)[C@@H]12 [Compound 53, (1S,2R,7S,8R,8aR)-7-[2-(Benzyloxy)ethyl]-1,2,8-trihydroxyindolizidine]	increased selectivity	0.24	
O[C@H]1[C@H]2[C@H](O)CCCN2C[C@H]1O [Compound 1, swainsonine]	non-selective	0.8	100
